# Values quoted from earlier work in US8183258B2, “Heterocyclic compounds and their uses” (Amgen Inc., priority 2007, dated 2012).
# Sequences of proteins named here, by UniProt entry; tags and fusion partners are left off.
# UniProt P42338, whole entry, species assumed: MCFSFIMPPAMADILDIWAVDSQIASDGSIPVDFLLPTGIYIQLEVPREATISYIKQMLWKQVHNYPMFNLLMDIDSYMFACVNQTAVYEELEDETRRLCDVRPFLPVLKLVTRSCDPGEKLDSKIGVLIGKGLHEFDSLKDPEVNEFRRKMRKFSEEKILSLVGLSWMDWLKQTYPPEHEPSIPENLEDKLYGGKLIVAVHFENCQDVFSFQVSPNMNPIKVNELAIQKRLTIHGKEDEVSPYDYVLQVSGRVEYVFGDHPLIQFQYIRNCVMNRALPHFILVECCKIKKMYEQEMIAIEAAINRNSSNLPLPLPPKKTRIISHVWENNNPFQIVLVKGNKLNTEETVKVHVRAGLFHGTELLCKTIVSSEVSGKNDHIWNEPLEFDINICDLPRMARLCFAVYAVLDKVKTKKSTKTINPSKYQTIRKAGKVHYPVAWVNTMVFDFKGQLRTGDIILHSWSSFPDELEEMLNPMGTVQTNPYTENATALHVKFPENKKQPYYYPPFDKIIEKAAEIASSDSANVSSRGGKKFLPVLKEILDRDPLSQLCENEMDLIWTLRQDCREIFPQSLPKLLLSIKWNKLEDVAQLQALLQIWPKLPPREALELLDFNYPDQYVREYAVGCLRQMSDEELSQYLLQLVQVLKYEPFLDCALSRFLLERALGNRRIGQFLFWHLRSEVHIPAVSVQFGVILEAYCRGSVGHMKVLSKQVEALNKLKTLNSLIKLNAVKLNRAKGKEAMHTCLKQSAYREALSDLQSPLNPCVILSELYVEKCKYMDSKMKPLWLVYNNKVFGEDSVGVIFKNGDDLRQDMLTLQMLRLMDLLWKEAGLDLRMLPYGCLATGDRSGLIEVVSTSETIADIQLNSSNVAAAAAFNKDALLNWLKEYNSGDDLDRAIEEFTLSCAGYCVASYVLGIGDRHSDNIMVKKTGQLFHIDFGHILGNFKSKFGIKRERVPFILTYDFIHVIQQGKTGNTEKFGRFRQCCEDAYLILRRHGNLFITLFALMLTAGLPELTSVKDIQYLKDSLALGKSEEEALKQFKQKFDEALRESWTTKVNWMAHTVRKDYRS
# Target: p110β (Homo sapiens, UniProt P42338)
# Details: read-out: potency on beta; cited from earlier work
structure (smiles),measurement,value
Cc1cc(C(C)Nc2ccccc2)c2nc(N3CCOCC3)cc(=O)n2c1 (stereo not shown) [TGX-221],pIC50,8.15

# pIC50: −log10 of the molar value.
